Data published in patent US9957273B2, “5-substituted 7- [4-(2-pyridyl)phenylmethylamino] -3-isopropylpyrazolo4,3-D]pyrimidine derivatives, use thereof as medicaments, and pharmaceutical compositions” (USTAV EXPERIMENTALNI BOTANIKY AV CR, V.V.I., priority 2015, dated 2018).

The chains behind the UniProt entries cited, without tags or fusion partners.
UniProt Q00535, whole entry: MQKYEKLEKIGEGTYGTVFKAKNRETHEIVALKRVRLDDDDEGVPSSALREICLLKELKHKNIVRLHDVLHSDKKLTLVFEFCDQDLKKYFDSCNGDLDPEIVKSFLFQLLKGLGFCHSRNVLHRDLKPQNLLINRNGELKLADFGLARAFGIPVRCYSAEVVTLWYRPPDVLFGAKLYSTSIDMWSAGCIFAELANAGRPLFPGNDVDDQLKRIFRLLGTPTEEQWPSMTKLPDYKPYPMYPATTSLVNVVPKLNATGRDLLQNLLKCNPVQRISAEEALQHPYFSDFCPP

Target: T1, CDK5/p35 (Homo sapiens, UniProt Q00535)
T1 construct: purchased ProQinase GmbH
Test: CDK5/p35 kinase inhibition (33P-ATP, histone H1)
Format: biochemical
Conditions: 0.15 μM ATP

SMILES	IC50 [µM]
CC(C)c1[nH]nc2c(NCc3ccc(-c4ccccn4)cc3)nc(NC[C@@H](C)O)nc12 [Compound 27]	0.005
CC[C@H](CO)Nc1nc(NCc2ccc(-c3ccccn3)cc2)c2n[nH]c(C(C)C)c2n1 [Compound 83]	0.009
CC[C@@H](CO)Nc1nc(NCc2ccc(-c3ccccn3)cc2)c2n[nH]c(C(C)C)c2n1 [Compound 84]	0.021
